Data set [1] deals with human serum albumin (HSA) (Homo sapiens, UniProt P02768). Nature of the data set: HSA binding by HPLC on a column with immobilized human albumin. As to conditions: natGa- and natLu-labeled inhibitors; HPLC retention time with non-linear regression calibration on nine reference substances.
Data set [2] concerns human blood samples.
The target in data set [3] is T1, PSMA (Homo sapiens, UniProt Q04609).
T1 construct: PSMA-positive LNCAP cells (200265; Cell Lines Service GmbH) were cultivated; host or cells: LNCaP human prostate cancer cells
The data set can be described thus: competitive binding assay (IC50) on LNCaP cells with ([125I]I-BA)KuE as radioligand. Conditions: LNCaP cells (150,000/well); ([125I]I-BA)KuE (c = 0.2 nM) as radioligand; HBSS (1% BSA), 4°C, 1 h; natGa or natLu analogs; mean ± SD (n = 3).

Amino acid sequences for entries named in this document (tags omitted). Residues count along the entry.
UniProt P02768, 25-609: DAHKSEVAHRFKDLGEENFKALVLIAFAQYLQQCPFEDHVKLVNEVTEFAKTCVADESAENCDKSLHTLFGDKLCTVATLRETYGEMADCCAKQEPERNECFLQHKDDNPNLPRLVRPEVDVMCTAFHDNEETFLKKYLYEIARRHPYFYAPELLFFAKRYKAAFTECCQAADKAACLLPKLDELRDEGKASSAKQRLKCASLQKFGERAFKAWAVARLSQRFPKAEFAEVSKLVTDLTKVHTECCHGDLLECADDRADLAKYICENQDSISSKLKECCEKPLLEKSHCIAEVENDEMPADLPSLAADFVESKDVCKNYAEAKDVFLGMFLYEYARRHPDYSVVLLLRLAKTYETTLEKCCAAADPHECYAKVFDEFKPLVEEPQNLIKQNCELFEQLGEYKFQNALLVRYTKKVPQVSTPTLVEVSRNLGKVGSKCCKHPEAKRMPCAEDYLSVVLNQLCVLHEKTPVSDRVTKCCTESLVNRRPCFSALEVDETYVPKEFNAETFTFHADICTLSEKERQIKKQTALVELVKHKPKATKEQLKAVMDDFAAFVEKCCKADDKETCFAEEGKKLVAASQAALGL
UniProt Q04609, whole entry: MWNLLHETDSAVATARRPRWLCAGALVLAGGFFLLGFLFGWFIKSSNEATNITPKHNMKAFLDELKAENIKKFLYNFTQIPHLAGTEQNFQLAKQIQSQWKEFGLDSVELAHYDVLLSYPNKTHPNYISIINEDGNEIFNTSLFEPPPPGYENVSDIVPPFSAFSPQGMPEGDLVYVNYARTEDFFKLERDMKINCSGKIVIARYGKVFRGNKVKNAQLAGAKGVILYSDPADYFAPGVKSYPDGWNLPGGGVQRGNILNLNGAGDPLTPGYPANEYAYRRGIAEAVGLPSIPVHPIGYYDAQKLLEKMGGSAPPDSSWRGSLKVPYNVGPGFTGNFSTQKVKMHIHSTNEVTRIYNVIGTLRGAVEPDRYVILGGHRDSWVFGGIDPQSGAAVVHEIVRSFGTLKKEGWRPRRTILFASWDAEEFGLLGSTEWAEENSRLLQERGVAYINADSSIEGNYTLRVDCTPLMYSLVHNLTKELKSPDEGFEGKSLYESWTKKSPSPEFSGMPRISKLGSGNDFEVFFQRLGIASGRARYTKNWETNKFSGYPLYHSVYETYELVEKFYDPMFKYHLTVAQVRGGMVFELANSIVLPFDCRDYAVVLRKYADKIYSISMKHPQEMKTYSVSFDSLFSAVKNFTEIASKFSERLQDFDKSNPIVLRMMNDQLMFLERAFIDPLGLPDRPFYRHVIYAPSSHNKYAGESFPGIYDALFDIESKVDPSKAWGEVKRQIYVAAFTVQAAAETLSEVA

Data set [4] has as its system LNCaP tumor xenografts. Nature of the data set: µPET imaging in mice bearing LNCaP tumor xenografts. As to conditions: PMPA 8mg/kg coinjection; static image 1 h p.i.

Like-named read-outs stand apart in the source and are kept apart here.

One may read the IC50 as the concentration at which inhibition is half-maximal. A high value points to weaker potency in that assay.

Take [^natGa]PSMA I&T Mannose [^nat/68Ga-14]: the “HSA [%]” value in data set [1] came out at 7.6%.

As for “[^natLu]PSMA I&T Galactose [^nat/177Lu-13]”, the results for the Binding to erythrocytes in data set [2] (simultaneous incubation with PMPA (100 µM)) and in data set [2] (without PMPA) were 29.5% and 26%, respectively. In the case of “[^natLu]PSMA I&T Mannose [^nat/177Lu-14]”, the “HSA [%]” value in data set [1] worked out at 25.1%. In the case of “[^natGa]PSMA I&T Cellubiose [^nat/68Ga-15]”, the “HSA [%]” value in data set [1] is on record as 6.9%. In data set [3], “[^natGa]PSMA I&T Galactose [^nat/68Ga-13]” gave an IC50 of 7.9 ± 3.9 nM. Besides, the “tissue uptake in kidneys and LNCaP tumor on coinjection of PMPA” value in data set [4] is listed as “reduced the uptake almost completely”.

These data come from patent publication EP3494998A1, “GLYCOSYLATED PSMA INHIBITORS FOR IMAGING AND ENDORADIOTHERAPY” (Technische Universität München, priority 2017, dated 2019).
